Broadly, the IC50 is the concentration needed to halve the response being measured.

The target in assay [1] is T1, Phosphatidylinositol 4,5-bisphosphate 3-kinase catalytic subunit delta isoform (Homo sapiens, UniProt O00329).
T1 sequence (O00329 whole entry): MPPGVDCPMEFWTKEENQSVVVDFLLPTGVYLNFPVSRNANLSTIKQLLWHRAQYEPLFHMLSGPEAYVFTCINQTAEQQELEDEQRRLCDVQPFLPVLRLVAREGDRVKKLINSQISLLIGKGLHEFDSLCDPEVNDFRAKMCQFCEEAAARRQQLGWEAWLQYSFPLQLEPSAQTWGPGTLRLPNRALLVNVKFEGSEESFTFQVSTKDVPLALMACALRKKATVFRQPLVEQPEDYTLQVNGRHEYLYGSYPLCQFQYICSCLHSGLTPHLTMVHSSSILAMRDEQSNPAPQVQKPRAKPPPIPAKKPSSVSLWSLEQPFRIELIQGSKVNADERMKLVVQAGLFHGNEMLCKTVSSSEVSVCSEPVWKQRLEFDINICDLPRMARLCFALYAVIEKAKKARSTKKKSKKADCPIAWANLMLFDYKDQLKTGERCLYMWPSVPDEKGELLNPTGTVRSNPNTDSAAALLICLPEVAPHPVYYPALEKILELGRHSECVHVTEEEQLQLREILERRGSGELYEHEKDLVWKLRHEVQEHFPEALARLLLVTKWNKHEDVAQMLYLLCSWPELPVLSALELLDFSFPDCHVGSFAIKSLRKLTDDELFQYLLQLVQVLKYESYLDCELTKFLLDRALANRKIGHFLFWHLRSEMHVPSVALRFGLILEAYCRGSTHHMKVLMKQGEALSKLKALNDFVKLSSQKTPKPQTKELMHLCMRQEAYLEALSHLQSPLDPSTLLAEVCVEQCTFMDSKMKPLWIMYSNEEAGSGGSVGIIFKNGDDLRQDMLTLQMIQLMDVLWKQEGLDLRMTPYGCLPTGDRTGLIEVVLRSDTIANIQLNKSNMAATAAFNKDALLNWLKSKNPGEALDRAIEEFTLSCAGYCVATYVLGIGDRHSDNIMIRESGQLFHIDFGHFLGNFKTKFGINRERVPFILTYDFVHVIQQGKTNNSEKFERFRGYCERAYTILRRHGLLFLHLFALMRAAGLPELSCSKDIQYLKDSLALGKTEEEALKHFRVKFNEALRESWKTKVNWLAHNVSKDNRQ
Put plainly: Binding affinity to PI3Kdelta (unknown origin). Particulars: read-out: Ki(app).

Assay [2] concerns the target T1, Phosphatidylinositol 4,5-bisphosphate 3-kinase catalytic subunit delta isoform. Put plainly: Inhibition of PI3Kdelta in human whole blood assessed as suppression of CD69 expression.

In the case of `Cc1nc(-c2cn3c(n2)-c2cc([C@@H](C)N4CCN(C(C)(C)C)CC4)c(C)cc2OCC3)n(C(C)C)n1`, the Ki in assay [1] turned out to be 0.48 nM. In assay [2], the half-maximal inhibitory concentration (IC50) was 4.9 nM.

The record behind these values is ChEMBL document CHEMBL4130452, “Design of Selective Benzoxazepin PI3Kδ Inhibitors Through Control of Dihedral Angles” (ACS Med Chem Lett, 2017).
